{"source": "patent US20080260774A1", "about": "“Alpha-galactosyl ceramide analogs and their use as immunotherapies” (priority 2007, published 2008)", "key": {"[1]": {"test_system": "human monocyte-derived DCs", "assay": "Maturation of human monocyte-derived dendritic cells", "conditions": "immature human DCs incubated with analog"}, "[2]": {"test_system": "syngeneic lung cancer (TC1) cells", "assay": "Lung cancer model in mice (TC1, IV inoculation)", "format": "in vivo", "conditions": "IV 0.1 μg per mouse once per week for four weeks"}, "melanoma (B16) cells": {"test_system": "melanoma (B16) cells", "assay": "Melanoma (B16) model in mice", "conditions": "IV 0.1 μg per mouse once per week for four weeks"}, "[3]": {"test_system": "lung cancer (TC1-GFP-Luciferase)", "assay": "Real time assessment of tumor growth, lung cancer TC1-GFP-Luciferase", "conditions": "IV 0.1 μg per mouse once per week for four weeks"}}, "data": [{"smiles": "CCCCCCCCCCCCCCCCCCCCCCCCCC(=O)N[C@@H](CO[C@H]1O[C@H](CO)[C@H](O)[C@H](O)[C@H]1O)[C@H](O)[C@H](O)CCc1ccccc1", "note": "[C13]", "values": [{"measurement": "expression levels of surface maturation markers (CD40, CD80, CD83, CD86, HLA-DR) on DCs", "setting": "[1]", "result": "significant increase in the expression levels of CD40, CD80, CD83, CD86 and HLA-DR"}]}, {"smiles": "CCCCCCCCCCCCCC[C@@H](O)[C@@H](O)[C@H](CO[C@H]1O[C@H](CO)[C@H](O)[C@H](O)[C@H]1O)NC(=O)CCCCCCCCCCc1ccc(-c2ccccc2)cc1", "note": "[C26]", "values": [{"measurement": "survival time of mice bearing TC1", "setting": "[2]", "result": "significant increase in the survival time of mice bearing TC1"}, {"measurement": "size of B16 tumors", "setting": "melanoma (B16) cells", "result": "significant decrease in the size of the tumors"}]}, {"smiles": "CCCCCCCCCCCCCC[C@@H](O)[C@@H](O)[C@H](CO[C@H]1O[C@H](CO)[C@H](O)[C@H](O)[C@H]1O)NC(=O)CCCCCCCCCCc1ccc(-c2ccc(F)cc2)cc1", "note": "[C30]", "values": [{"measurement": "survival time of mice bearing TC1", "setting": "[2]", "result": "significant increase in the survival time of mice bearing TC1"}, {"measurement": "tumor growth (bioluminescence)", "setting": "[3]", "result": "significant decrease in tumor growth compared with both control and α-GalCer"}, {"measurement": "size of B16 tumors", "setting": "melanoma (B16) cells", "result": "significant decrease in the size of the tumors"}]}]}
